The numbers were not newly measured in patent publication US20250034106A1, “3-CYCLOAMINO-INDOLE COMPOUNDS AS SEROTONERGIC AGENTS USEFUL FOR THE TREATMENT OF DISORDERS RELATED THERETO” (Mindset Pharma Inc., priority 2021, published 2025), which cites them from elsewhere.

The target of the data set is human 5-HT1A (Homo sapiens (Human), UniProt P08908). To be noted: human receptor; read-out: binding affinity 5-HT1A; cited from earlier work.

Structures are written as SMILES.

For `COc1ccc2[nH]cc(CCN(C)C)c2c1` [Compound 5-MeO-DMT, 5-methoxy-N,N-dimethyltryptamine], the Ki is 3 ± 0.2 nM.
